Target: Smurf-1 (Homo sapiens (Human), UniProt Q9HCE7)
Experiment: HECT E3 ligase autoubiquitinylation TR-FRET assay (Smurf-1)
Format: biochemical
Conditions: 8-point dose-response curve, 3 nM to 10 uM; 45 min incubation
Excerpt: To determine the HECT E3 ligase selectivity of the compounds, a panel of biochemical HECT E3 ligase autoubiquitinylation assays was employed (Smurf-1, Smurf-2, WWP1, WWP2, ITCH, Nedd4, Nedd4L and E6AP). The conjugation of ubiquitin to a protein substrate is a multistep process. In an initial ATP-requiring step, a thioester bond is formed between the carboxyl terminus of ubiquitin and an internal cystein residue of the ubiquitin-activating enzyme (E1). Activated ubiquitin is then transferred to a specific cystein residue of an ubiquitin-conjugating enzyme (E2). E2s donate ubiquitin to a HECT E3 ligase (E3) from which it is transferred to the substrate protein. HECT E3 ligases can auto-ubiquitinylate. This event is detected in the TR-FRET (Time-Resolved Fluorescence Resonance Energy Transfer) assay used in this panel. The reaction mix contains E1, E2, tagged-E3, biotin-conjugated ubiquitin, the compound and ATP in a suitable buffer and is incubated for 45 minutes to allow auto-ubiquitinylation of the E3 ligase. […] When these two fluorophores are brought together by a bimolecular interaction (in this case ubiquitinylation of the E3 ligase), a portion of the energy captured by the Cryptate during excitation is released through fluorescence emission at 620 nm, while the remaining energy is transferred to XL665. This energy is then released by XL665 as specific fluorescence at 665 nm. […]

Chains of the proteins cited; added tags and fusions are not shown.
UniProt Q9HCE7, whole entry: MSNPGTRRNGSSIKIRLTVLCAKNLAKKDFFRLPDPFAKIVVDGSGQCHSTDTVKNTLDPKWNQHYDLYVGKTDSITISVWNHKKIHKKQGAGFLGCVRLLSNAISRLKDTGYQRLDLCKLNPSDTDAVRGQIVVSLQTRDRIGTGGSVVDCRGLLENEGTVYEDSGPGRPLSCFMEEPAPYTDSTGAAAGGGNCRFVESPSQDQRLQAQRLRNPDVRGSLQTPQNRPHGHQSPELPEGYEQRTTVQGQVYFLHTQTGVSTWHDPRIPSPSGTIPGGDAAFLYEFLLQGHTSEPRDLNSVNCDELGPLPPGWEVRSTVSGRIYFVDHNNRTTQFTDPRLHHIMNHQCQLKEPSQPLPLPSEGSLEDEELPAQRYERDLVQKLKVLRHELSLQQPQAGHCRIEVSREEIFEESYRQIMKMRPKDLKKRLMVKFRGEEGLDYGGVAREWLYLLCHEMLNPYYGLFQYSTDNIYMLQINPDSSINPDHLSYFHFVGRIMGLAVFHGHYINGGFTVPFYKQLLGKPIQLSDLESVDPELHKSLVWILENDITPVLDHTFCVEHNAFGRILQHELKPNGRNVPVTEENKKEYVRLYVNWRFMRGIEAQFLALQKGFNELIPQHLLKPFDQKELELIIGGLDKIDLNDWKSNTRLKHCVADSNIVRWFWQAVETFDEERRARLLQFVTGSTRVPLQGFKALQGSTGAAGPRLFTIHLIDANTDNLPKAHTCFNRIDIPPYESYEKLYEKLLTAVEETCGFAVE

N-(2-Cyclohexyl-1,5-dimethyl-3-oxo-2,3-dihydro-1H-pyrazol-4-yl)-4-methyl-5-((2S,5R)-5-methyltetrahydro-2H-pyran-2-yl)isoxazole-3-carboxamide and N-(2-Cyclohexyl-1,5-dimethyl-3-oxo-2,3-dihydro-1H-pyrazol-4-yl)-4-methyl-5-((2R,5S)-5-methyltetrahydro-2H-pyran-2-yl)isoxazole-3-carboxamide [Example 22c]
IC50: 1.4 nM

From patent US9403810B2, “Carboxamide derivatives” (Novartis AG, priority 2014, dated 2016)
